Experimental findings from patent publication US5432164A, “C2,N^6 -disubstituted adenosine derivatives” (Novo Nordisk A/S, priority 1991, dated 1995) are described below.

The chains behind the UniProt entries cited, without tags or fusion partners.
UniProt P30543, whole entry: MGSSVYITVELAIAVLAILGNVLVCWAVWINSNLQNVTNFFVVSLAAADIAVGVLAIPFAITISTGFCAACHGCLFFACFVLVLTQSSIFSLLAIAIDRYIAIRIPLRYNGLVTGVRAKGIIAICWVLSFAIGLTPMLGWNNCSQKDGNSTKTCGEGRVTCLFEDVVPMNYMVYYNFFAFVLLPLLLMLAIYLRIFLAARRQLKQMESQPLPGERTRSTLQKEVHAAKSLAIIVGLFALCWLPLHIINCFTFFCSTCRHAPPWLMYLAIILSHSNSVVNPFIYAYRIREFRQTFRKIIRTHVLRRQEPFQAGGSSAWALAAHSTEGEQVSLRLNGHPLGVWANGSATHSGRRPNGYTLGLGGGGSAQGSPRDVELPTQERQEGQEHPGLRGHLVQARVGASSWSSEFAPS

The target in the experiment is T1, adenosine A2 receptor (Rattus norvegicus, UniProt P30543).
T1 construct: from tissue
Put plainly: In vitro binding to adenosine A2 receptor, radioligand [3H]-CGS 21680.

Molecule `CC(Cc1ccccc1)Nc1ncnc2c1ncn2[C@@H]1O[C@H](CO)[C@@H](O)[C@H]1O` (stereo partly drawn) [L-PIA, N-(1-phenyl-2-propyl)adenosine, reference compound] yielded a Ki of 0.134 µM.
